US11331299B2, “Medicinal use of serrulatane diterpenes” (The University of Sydney, priority 2016, dated 2022)

By UniProt entry, the sequences of proteins in these tests, tags left out. Residues count along the entry.
UniProt P24530, 27-442: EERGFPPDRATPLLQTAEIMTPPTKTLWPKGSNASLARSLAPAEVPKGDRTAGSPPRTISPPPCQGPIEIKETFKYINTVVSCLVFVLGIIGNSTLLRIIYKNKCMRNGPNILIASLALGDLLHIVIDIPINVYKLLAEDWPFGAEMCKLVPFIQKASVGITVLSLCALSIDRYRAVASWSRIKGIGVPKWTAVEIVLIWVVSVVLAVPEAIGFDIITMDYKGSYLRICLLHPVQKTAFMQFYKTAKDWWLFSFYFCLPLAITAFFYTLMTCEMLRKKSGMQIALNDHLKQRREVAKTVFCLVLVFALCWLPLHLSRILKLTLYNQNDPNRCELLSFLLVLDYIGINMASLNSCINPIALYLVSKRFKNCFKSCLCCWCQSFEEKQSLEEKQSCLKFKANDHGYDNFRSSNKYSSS

Target: receptors (Bioprint panel) (Homo sapiens, UniProt P24530)
Conditions: read-out: Reference Compound IC50; […] (h) (agonist radioligand)

Work on endothelin-3 yielded an IC50 of 0.017 nM.
